Experimental data: patent publication US8222270B2 (Medicis Pharmaceutical Corporation, priority 2008, dated 2012)

Assay: Genotoxicity tests (five in vitro, three in vivo)
Details: Ames, mouse lymphoma L5178Y, CHO and human lymphocyte chromosome aberration, SHE cell transformation, rat and hamster bone marrow cytogenetics, mouse dominant lethal

## CC(C)Cn1cnc2c(N)nc3ccccc3c21 [imiquimod, 1-(2-methylpropyl)-1H-imidazo[4,5-c]quinolin-4-amine]
  Mutagenic or clastogenic potential: no evidence of mutagenic or clastogenic potential
